Results as given in patent US4769369A, “Anti-allergy 1(2H)-phthalazinones” (Pennwalt Corporation, priority 1986, dated 1988).

System: histamine
Test: Rat Allergic Mediator Induced Dermal Vascular Permeability Test, histamine challenge
Format: in vivo
Settings: 1 mg/kg
Protocol: Ten minutes later, the animals are challenged by intradermally injecting 0.1 ml of a water solution of either serotonin (1 μg/ml), histamine (20 μg/ml) or bradykinin (10 μg/ml) into separate sites on the back. Five minutes following challenge the animals are killed, the skin retracted, and the mean diameter of the blue wheal and flare reaction is calculated as the difference in mean diameter between a saline control and the drug treated group, divided by the control diameter, and then multiplied times 100. Statistical analysis of the data is done using a Student T-test program. […] (Set: Serotonin; His: histamine; Bk: bradykinin)

[1] = Table 4 (ip administration of test compound)
[2] = Table 5 (po administration of test compound)

CN1CCC(=C2c3ccccc3C=Cc3ccccc32)CC1 [Cyproheptadine, cyproheptadine, reference compound]
% Inhibition, His [1]: 92.9% | Wheal Measurement, His [1]: 0.8 mm | % Inhibition, His [2]: 100% | Wheal Measurement, His [2]: 0 mm
